According to patent publication US20040126323A1, “Transdermal dosage form comprising an active agent and a salt and free-base form of an adverse agent” (published 2004):

Experiments:
[1] = Example 2 device, 2 cm^2 portion; for amount extracted, PBS: 15 mL PBS; for amount extracted, Diethyl Ether: 15 mL diethyl ether
[2] = Example 1 device, 2 cm^2 portion; for amount extracted, PBS: 15 mL PBS; for amount extracted, Diethyl Ether: 15 mL diethyl ether
[3] = 15 mL ethanol/water 75:25, 5 minutes
[4] = 15 mL ethanol/water 75:25, 10 minutes
[5] = 15 mL ethanol/water 75:25, 15 minutes
[6] = 15 mL ethanol/water 75:25, 20 minutes
[7] = 15 mL ethanol/water 75:25, 25 minutes
[8] = 15 mL ethanol/water 75:25, 30 minutes

Compound | amount extracted, PBS ([1]; 5 minutes) | amount extracted, PBS ([1]; 10 minutes) | amount extracted, PBS ([1]; 15 minutes) | amount extracted, PBS ([1]; 20 minutes) | amount extracted, PBS ([1]; 25 minutes) | amount extracted, PBS ([1]; 30 minutes) | amount extracted, Diethyl Ether ([1]; 5 minutes) | amount extracted, Diethyl Ether ([1]; 10 minutes) | amount extracted, Diethyl Ether ([1]; 15 minutes) | amount extracted, Diethyl Ether ([1]; 20 minutes) | amount extracted, Diethyl Ether ([1]; 25 minutes) | amount extracted, Diethyl Ether ([1]; 30 minutes) | amount extracted, Ethanol/Water [1, 3] | amount extracted, Ethanol/Water [1, 4] | amount extracted, Ethanol/Water [1, 5] | amount extracted, Ethanol/Water [1, 6] | amount extracted, Ethanol/Water [1, 7] | amount extracted, Ethanol/Water [1, 8] | also measured
O=C1CC[C@@]2(O)[C@H]3Cc4ccc(O)c5c4[C@@]2(CCN3CC2CC2)[C@H]1O5 | 0 µg | 8 µg | 10 µg | 22 µg | 28 µg | 38 µg | 204 µg | 386 µg | 556 µg | 537 µg | 637 µg | 534 µg | 50 µg | 177 µg | 331 µg | 471 µg | 577 µg | 735 µg | 
C=C1CC[C@@]2(O)[C@H]3Cc4ccc(O)c5c4[C@@]2(CCN3CC2CC2)[C@H]1O5 | 0 µg | 6 µg | 9 µg | 9 µg | 26 µg | 35 µg | 596 µg | 1092 µg | 1514 µg | 1425 µg | 1649 µg | 1346 µg | 48 µg | 179 µg | 334 µg | 469 µg | 568 µg | 721 µg | amount extracted, PBS ([2]; 5 minutes): 0 µg; amount extracted, PBS ([2]; 10 minutes): 0 µg; amount extracted, PBS ([2]; 15 minutes): 4 µg; amount extracted, PBS ([2]; 20 minutes): 5 µg; amount extracted, PBS ([2]; 25 minutes): 14 µg; amount extracted, PBS ([2]; 30 minutes): 15 µg; amount extracted, Diethyl Ether ([2]; 5 minutes): 0 µg; amount extracted, Diethyl Ether ([2]; 10 minutes): 52 µg; amount extracted, Diethyl Ether ([2]; 15 minutes): 193 µg; amount extracted, Diethyl Ether ([2]; 20 minutes): 314 µg; amount extracted, Diethyl Ether ([2]; 25 minutes): 318 µg; amount extracted, Diethyl Ether ([2]; 30 minutes): 353 µg; amount extracted, Ethanol/Water [2, 3]: 38 µg; amount extracted, Ethanol/Water [2, 4]: 140 µg; amount extracted, Ethanol/Water [2, 5]: 251 µg; amount extracted, Ethanol/Water [2, 6]: 480 µg; amount extracted, Ethanol/Water [2, 7]: 650 µg; amount extracted, Ethanol/Water [2, 8]: 834 µg

Read-outs that look alike come from different tables or passages of the source.
